# Molecular target: T1, AChE from electric eel (Electrophorus electricus) (Electrophorus electricus, UniProt O42275)
# Sequences of proteins named here, by UniProt entry; tags and fusion partners are left off. Residues count along the entry.
# UniProt O42275, 24-633: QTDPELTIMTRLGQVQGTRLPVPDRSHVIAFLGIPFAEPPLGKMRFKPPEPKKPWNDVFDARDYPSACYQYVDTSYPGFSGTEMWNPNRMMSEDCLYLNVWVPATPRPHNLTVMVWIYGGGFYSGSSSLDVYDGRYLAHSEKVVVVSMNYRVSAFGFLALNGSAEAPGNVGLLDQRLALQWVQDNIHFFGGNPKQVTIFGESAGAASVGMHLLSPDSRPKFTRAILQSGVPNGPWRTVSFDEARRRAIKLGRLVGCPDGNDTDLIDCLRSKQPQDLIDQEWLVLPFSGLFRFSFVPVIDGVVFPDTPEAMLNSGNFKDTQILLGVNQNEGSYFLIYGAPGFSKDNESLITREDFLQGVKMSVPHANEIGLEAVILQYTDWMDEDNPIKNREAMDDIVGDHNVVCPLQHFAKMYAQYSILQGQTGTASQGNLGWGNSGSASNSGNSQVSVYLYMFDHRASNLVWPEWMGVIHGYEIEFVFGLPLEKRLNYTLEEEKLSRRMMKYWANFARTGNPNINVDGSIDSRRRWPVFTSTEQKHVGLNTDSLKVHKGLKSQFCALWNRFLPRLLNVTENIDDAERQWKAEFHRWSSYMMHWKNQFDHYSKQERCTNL
# T1 construct: purchased Sigma-Aldrich GmbH (Steinheim, Germany)
# Experiment: AChE-inhibition microtiter assay (Ellman, 96-well, with or without NBS oxidation)
# Type: biochemical
# Experimental: Stock solutions (1 mg/mL) of NBS and ascorbic acid were each freshly prepared before the test and then diluted to 10 µg/mL and 100 µg/mL, respectively. The assay was performed with modifications according to Ellman’s method. OTPs, oxons, water, and methanol blanks (15 µL) were each mixed with 15 µL of NBS (10 µg/mL) in a 96-well plate. After an incubation at room temperature for 5 min, the reaction was stopped by adding 15 µL ascorbic acid (100 µg/mL). For the test setup without oxidation, OTPs, oxons, water, and methanol blanks (15 µL) were mixed with 30 µL water per well. Subsequently, 200 µL of a DTNB solution (0.15 mM), buffered in TRIS/HCl at a pH of 7.4, was added to each well of both test setups. Then, 20 µL of an AChE solution (0.5 U/mL), also buffered in TRIS/HCl at a pH of 7.4, was added. An incubation at 30 °C for 30 min without shaking followed. An ATCL solution (0.8 mM) was freshly prepared with water and 30 µL per well was added after incubation. […] The absorbance of the yellow-colored anion was photometrically measured at 405 nm (Sunrise Remote, Tecan Group AG, Männedorf, Schweiz).
# Dilution series with eight concentrations of the three OTPs and related oxons (Tab. S1) were freshly prepared from stock solutions (1–10 mg/mL) in methanol. […] The 95% confidence intervals of the curves and the standard deviations of the mean AChE activity were also calculated. […]
smiles,measurement,value
CCOP(=O)(OCC)Oc1nc(Cl)c(Cl)cc1Cl [Chlorpyrifos-oxon],IC50,23 nM
